Reference: PubChem BioAssay AID1359 (The Scripps Research Institute Molecular Screening Center, 2008)
Only a part is listed here, and it is no random draw. Some results for these compounds are left out of this collection, so the calls shown say nothing about other tests. Activity calls are given as the source filed them. No stated cut-off is given here; in the data, active means activation above about 27%; inactive means the rest.

By UniProt entry, the sequences of proteins in these tests, tags left out.
UniProt P49146, whole entry: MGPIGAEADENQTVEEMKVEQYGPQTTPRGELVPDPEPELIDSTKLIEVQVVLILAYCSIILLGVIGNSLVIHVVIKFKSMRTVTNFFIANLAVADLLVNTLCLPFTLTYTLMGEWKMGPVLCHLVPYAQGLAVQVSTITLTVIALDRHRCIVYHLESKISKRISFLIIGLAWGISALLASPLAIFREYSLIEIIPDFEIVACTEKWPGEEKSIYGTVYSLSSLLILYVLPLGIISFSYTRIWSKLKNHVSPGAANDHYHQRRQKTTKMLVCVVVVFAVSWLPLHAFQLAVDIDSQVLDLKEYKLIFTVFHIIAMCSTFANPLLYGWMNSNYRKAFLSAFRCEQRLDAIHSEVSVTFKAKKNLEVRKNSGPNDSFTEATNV

The compounds below were run against Neuropeptide Y receptor type 2 (Homo sapiens) (UniProt P49146) (assay: NPY-Y2 potentiators or agonists, primary screen, cell-based (AID 1359;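 further: cells stimulated with NPY near EC25 plus isoproterenol at EC100; 0% = vehicle plus submaximal agonist and 100% = vehicle plus saturating agonist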)). Conditions: cells expressing NPY-Y2, potentiator/agonist read-out; at 3.6 µM; hits give high values.

SMILES | activation
O=C(NCC1(N2CCCCC2)CCCCC1)c1cc([N+](=O)[O-])ccc1Cl | inactive: 9.02%
CC(C)N1C(=O)CC2(CCN(CCOC(=O)C(O)(c3ccccc3)c3ccccc3)CC2)C1=O | inactive: 6.03%
CCN(CC)CC(C)C(C)OC(=O)C(O)(c1ccccc1)c1ccccc1 (stereo unspecified) | inactive: -25.1%
CN(C)C1CCCC1OC(=O)C(O)(c1ccccc1)c1ccccc1 (stereo unspecified) | inactive: -1.55%
Cc1ccccc1C(=O)NCC1(N2CCCCC2)CCCCC1 | inactive: -2.25%
C=CCN1CCN(CCOC(=O)C(O)(c2ccccc2)c2ccccc2)CC1 | inactive: -7.75%
CCN1CCCC(OC(=O)C2(O)c3ccccc3C=Cc3ccccc32)C1 (stereo unspecified) | inactive: 2.12%
COc1cccc(C(=O)NCC2(N3CCCCC3)CCCCC2)c1 | inactive: 5.66%
O=C(OC1CN2CCC1CC2)C(CO)(c1ccccc1)c1ccccc1 (stereo unspecified) | inactive: 7.1%
COc1ccc(Br)c(C(=O)NCC2(N3CCCCC3)CCCCC2)c1 | inactive: -0.93%
CN(C)c1cccc(C(=O)NCC2(N(C)C)CCCCC2)c1 | inactive: 1.85%
